{"sequences": {"note": "Amino acid sequences for entries named in this document (tags omitted). Residues count along the entry.", "UniProt P23219, 24-599": "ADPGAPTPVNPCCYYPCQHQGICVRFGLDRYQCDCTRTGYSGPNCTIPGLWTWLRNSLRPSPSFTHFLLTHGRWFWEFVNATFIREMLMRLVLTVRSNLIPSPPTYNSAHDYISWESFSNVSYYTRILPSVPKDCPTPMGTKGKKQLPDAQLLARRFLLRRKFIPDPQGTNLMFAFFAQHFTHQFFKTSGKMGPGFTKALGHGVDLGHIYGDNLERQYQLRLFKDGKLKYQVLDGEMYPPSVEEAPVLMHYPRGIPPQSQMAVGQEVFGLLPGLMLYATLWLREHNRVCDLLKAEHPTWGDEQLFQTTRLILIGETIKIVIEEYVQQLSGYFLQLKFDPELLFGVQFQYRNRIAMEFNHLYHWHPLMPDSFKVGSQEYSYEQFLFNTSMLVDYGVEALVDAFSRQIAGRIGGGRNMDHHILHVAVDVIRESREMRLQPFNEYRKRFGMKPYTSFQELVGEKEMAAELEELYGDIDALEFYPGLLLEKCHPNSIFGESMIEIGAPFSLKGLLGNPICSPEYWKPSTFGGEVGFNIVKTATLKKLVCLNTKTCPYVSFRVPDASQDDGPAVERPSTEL"}, "source": "patent US8193209B2", "about": "(dated 2012)", "origin": "cited, not measured here", "molecular_target": "COX-1 (Homo sapiens, UniProt P23219)", "conditions": "read-out: COX-1 IC50; cited from earlier work", "data": [{"smiles": "CS(=O)(=O)c1ccc(C2=C(c3ccccc3)C(=O)OC2)cc1", "note": "[Vioxx]", "values": [{"measurement": "IC50", "value": 369, "unit": "µM"}]}]}
